Test results published in patent US20070036775A1, “Method of modulating or examining Ku70 levels in cells” (priority 2001, published 2007).

Tested on: HEK293T cells
Assay: Bak-induced cell death in HEK293T cells
Assay type: cell-based
Conditions: HEK293T cells co-transfected with pcDNA3-Bak
Protocol: FIG. 1. […] FIG. 1A: Scheme of Ku70 full-length, Bax-suppressor clones (clone 1 and 2) obtained by yeast-based functional screening using pGilda-Bax plasmid for Bax expression as reported (Xu, et al., 2000). FIG. 1B: Ku70 suppresses Bax-induced apoptosis in HEK293T cells as well as XIAP. 10^6 cells were transfected with 1.0 μg of pcDNA3 (Control) or pcDNA3-Bax (Bax) together with 0.5, 1.0, or 2.0 μg of pCMV-2B-Ku70 wt (Ku70 wt) or pcDNA3-Myc-XIAP (XIAP). In “Bax+Vector” group, 1.0 μg pcDNA3-Bax and 2 ug of pCMV-2B were used, respectively (Control and Bax+Vector). All the cells were also co-transfected with 0.5 μg pEGFP for the marking of transfected cells. Apoptosis in the transfected cells was analyzed 24 hours following transfection with Hoechst dye staining of the nucleus as described in Experimental Procedure. FIG. 1C: Time course of the suppression of Bax-induced apoptosis by Ku70 and XIAP in HEK293T cells. […] Apoptosis in the transfected cells was analyzed at 24 hours (Control) or the indicated time points following transfection. […] After 24 hours, apoptotic cells were counted as described in FIG. 1B. […] The number of apoptotic cells was determined as described in FIG. 1B. […] Apoptosis in the transfected cells was analyzed at the indicated periods following transfection as described in FIG. 1C. […]

Substance: Ku70: human full length Ku70, 70 kDa subunit of Ku-complex (609 amino acids), expressed from pCMV-2B plasmid
- effect on Bak-induced cell death: could not suppress Bak-induced cell death
